Experimental data published in the CheMixHub viscosity set.

Experiment: xn = mol fraction of the nth substance listed
Conditions: 101 kPa

OCCOCCOCCOCCO + CS(C)=O
viscosity [mPa·s]
Conditions | 293.15 K | 298.15 K | 303.15 K | 308.15 K | 313.15 K | 318.15 K
x1 = 0.0207 | 2.572 | 2.337 | 1.996 | 1.81 | 1.636 | 1.481
x1 = 0.0428 | 2.938 | 2.711 | 2.3 | 2.018 | 1.835 | 1.655
x1 = 0.0663 | 3.446 | 3.224 | 2.667 | 2.315 | 2.085 | 1.872
x1 = 0.0914 | 4.068 | 3.709 | 3.106 | 2.675 | 2.397 | 2.142
x1 = 0.1182 | 4.775 | 4.327 | 3.6 | 3.077 | 2.738 | 2.437
x1 = 0.1471 | 5.582 | 5.123 | 4.195 | 3.583 | 3.129 | 2.768
x1 = 0.1781 | 6.637 | 6.005 | 4.868 | 4.095 | 3.601 | 3.165
x1 = 0.2115 | 7.853 | 7.066 | 5.668 | 4.726 | 4.135 | 3.609
x1 = 0.2476 | 9.248 | 8.164 | 6.588 | 5.447 | 4.738 | 4.112
x1 = 0.2869 | 10.82 | 9.589 | 7.658 | 6.291 | 5.445 | 4.692
x1 = 0.3296 | 13 | 11.29 | 8.926 | 7.264 | 6.237 | 5.357
x1 = 0.3763 | 15.34 | 13.23 | 10.39 | 8.399 | 7.166 | 6.116
x1 = 0.4276 | 18.19 | 15.62 | 12.14 | 9.711 | 8.224 | 6.953
x1 = 0.4842 | 21.37 | 18.18 | 14.05 | 11.17 | 9.404 | 7.915
x1 = 0.5469 | 25.23 | 21.25 | 16.33 | 12.88 | 10.74 | 9.016
x1 = 0.6167 | 29.66 | 24.85 | 18.88 | 14.79 | 12.28 | 10.22
x1 = 0.6951 | 34.9 | 28.92 | 21.8 | 16.99 | 14.01 | 11.58
x1 = 0.7836 | 41.07 | 33.7 | 25.23 | 19.52 | 16.03 | 13.13
x1 = 0.8843 | 48.09 | 38.92 | 29.17 | 22.37 | 18.21 | 14.84
